For 51 molecules, activity change results are on record in PubChem BioAssay AID743279 (National Center for Advancing Translational Sciences (NCATS), 2014).

The list shows a part of the results, in another mix than the full data. Inconclusive results are not listed. Some salts and complexes are drawn in separate pieces, as the source files them; their charges need not balance. The source made the active and inactive calls. Rule as the data show it: active = activity change below about -50%; inconclusive = mostly about -30% to -49%; inactive = weaker than that.
% is scaled to controls: 0 for no effect and ±100 for the full control effect.

This assay in a line: qHTS for Inhibitors of Inflammasome Signaling: IL-1-beta AlphaLISA Primary Screen. The following applies: THP-1 LPS/ATP IL-1B secretion, 16 h; at 57.5 µM, stronger effect = lower value. From the text:
Inflammasomes are a set of intracellular multi-protein complexes that enable autocatalytic activation of inflammatory caspases and drive the innate immune response to counter harmful agents. […] A qHTS assay, based on AlphaLISA technology, was developed to screen the Molecular Libraries Small Molecule Repository (MLSMR) to look for novel inflammasome inhibitors. The assay detects IL-1B using AlphaLISA anti-IL-1B acceptor and donor beads. A decreased emission signal, indicating reduced IL-1B secretion, is the desired outcome for this assay. NIH Chemical Genomics Center [NCGC] NIH Molecular Libraries Probe Centers Network [MLPCN] MLPCN Grant: MH095513 Assay Provider: Shyam Biswal Ph.D., Johns Hopkins University Immunity. 2012 Jul 27;37(1):85-95. PMID: 22819042 [2] Curr Pharm Des. 2012;18(16):2320-8. PMID: 22390695
Three microliters containing 3000 THP-1 cells were dispensed into the wells of solid, white, tissue culture treated Greiner 1,536-well plates. Library compounds and positive control, Glyburide, were pin-transferred (23 nL) by a Kalypsys pin-tool equipped with a 1,536-pin array, resulting in final compound concentration ranges of 2.5 nM to 57.5 uM. After 1 hr of cell culture incubation (37 °C, 5% CO2), 1 microL of 1 microg/mL lipopolysaccharide (250 ng/mL, final) and 5 mM ATP (1.25 mM, final) were added to stimulate the cells. After 16 hr of cell culture incubation with the compounds, 1.5 uL of anti-IL-1B acceptor beads (6 ug/mL, final) and biotinylated antibody (0.6 nM, final) were added to the plate, followed by a 1 hr incubation at ambient temperature. To detect the secreted IL-1B, 1.5 uL of AlphaLISA SA-Donor beads (24 ug/mL, final) were added, followed by 30 min of incubation in the dark at ambient temperature. The AlphaLISA signal was read by a PerkinElmer EnVision plate reader with an ultrasensitive luminescence detector and 1536 Plate HTS AlphaScreen aperture (excitation of 680nm and emission of 615nm).
Take `COc1ccc(C(=O)NCC2(N3CCCCC3)CCCCC2)cc1`: the activity change is inactive: 4.98%.
Then `O=C(NCC1(N2CCCCC2)CCCCC1)c1cccs1`, with inactive: -2.68%; and `CCCCn1nnnc1C(CC)N1CCC(n2c(=O)[nH]c3ccccc32)CC1` (stereo unspecified), with inactive: -27.3%.
To `CCCCn1nnnc1C(c1cccs1)N1CCC(n2c(=O)[nH]c3ccccc32)CC1` (stereo unspecified) belongs inactive: 0%; to `O=C(NCC1(N2CCCCC2)CCCCC1)c1ccc(=O)[nH]c1`, inactive: 6.98%.
Then `Cc1cccc(NC2(C#N)CCN(Cc3ccccc3)CC2)c1`, with inactive: -0.279%; and `CSc1ccccc1C(=O)NCC1(N2CCCCC2)CCCCC1`, with inactive: -5.77%; and `Cc1cc(C)cc(N(C(=O)c2ccccc2)C2CCN(C(=O)OC(C)(C)C)CC2)c1`, with “active”.
Consider `O=C(NCC1(N2CCCCC2)CCCCC1)c1ccc(Cl)nc1`, for which the activity change is inactive: -19.4%.
Then `O=c1[nH]c2ccccc2n1C1CCN(C(c2ccccc2OC(F)(F)F)c2nnnn2C2CCCCC2)CC1` (stereo unspecified), with inactive: -29.4%; and `O=C(NCC1(N2CCOCC2)CCCCC1)c1cc2ccccc2o1`, with inactive: -4.42%.
To `COc1ccc(Cl)cc1C(=O)NCC1(N2CCOCC2)CCCCC1` belongs inactive: -29.4%.
To `O=C1C(O)=C([N+](=O)[O-])C(=O)C(O)=C1[N+](=O)[O-]` belongs inactive: -2.25%; to `N#CC1(Nc2ccccc2)CCN(Cc2ccccc2)CC1`, inactive: 0%.
Turning to `O=C(NCC1(N2CCCCC2)CCCCC1)c1ccc(Cl)s1`, the activity change was inactive: -4.58%.
To `O=C(OC1CN2CCC1CC2)C1c2ccccc2Oc2ccccc21` (stereo unspecified) belongs inactive: -10.7%.
To `O=c1[nH]c2ccccc2n1C1CCN(C(c2cc3ccccc3o2)c2nnnn2C2CCCCC2)CC1` (stereo unspecified) belongs inactive: 0%; to `CCCCn1nnnc1C(c1ccc(OC)cc1)N1CCC(n2c(=O)[nH]c3ccccc32)CC1` (stereo unspecified), inactive: -26.2%.
To `CCOC(=O)N1CCC(Nc2ccc(OC)cc2)CC1` belongs inactive: -4.41%; to `CC(C)c1ccc(NC2CCN(C(=O)OC(C)(C)C)CC2)cc1`, “active”.
For `CCCCn1nnnc1C(c1ccccc1OC(F)(F)F)N1CCC(n2c(=O)[nH]c3ccccc32)CC1` (stereo unspecified), the activity change is inactive: -20.9%.
To `O=[N+]([O-])c1cc([N+](=O)[O-])c(OC2CCCCC2O)c([N+](=O)[O-])c1` (stereo unspecified) belongs inactive: 22.2%; to `CN(C)c1cccc(C(=O)NCC2(N3CCCCC3)CCCCC2)c1`, inactive: 37.5%.
To `COc1ccc(CN(CCCl)CCCl)cc1Cl` belongs inactive: -5.69%.
In the case of `O=C(NCC1(N2CCOCC2)CCCCC1)c1cc(F)c(F)cc1Cl`, the activity change is inactive: -8.58%.
Then `CCC(c1nnnn1C(C)(C)C)N1CCC(n2c(=O)[nH]c3ccccc32)CC1` (stereo unspecified), with inactive: -28.8%; and `COc1cc(OC)c(C(=O)NCC2(N(C)C)CCCCC2)cc1OC`, with inactive: -4.4%.
With `CCCCn1nnnc1C(c1ccnc2ccccc12)N1CCC(n2c(=O)[nH]c3ccccc32)CC1` (stereo unspecified), the activity change is inactive: -15.2%.
On to `O=C(OC1CN2CCC1CC2)c1ccc([N+](=O)[O-])cc1` (stereo unspecified), for which the activity change is active: -69.5%.
To `CN1CCC(Nc2cccc(F)c2)CC1` belongs inactive: -24.1%.
As to `COc1ccc2c(c1O)-c1c(O)c(OC)cc3c1[C@H](C2)[N+](C)(C)CC3.O=[N+]([O-])c1cc([N+](=O)[O-])c([O-])c([N+](=O)[O-])c1[O-]`, the activity change is inactive: 23.8%.
To `O=C(NCC1(N2CCCCC2)CCCCC1)c1cncc(Br)c1` belongs inactive: 5.69%; to `O=[N+]([O-])c1cc([N+](=O)[O-])c(Nc2ccc(Cl)cc2)c([N+](=O)[O-])c1`, inactive: 0%; to `COc1ccc(C(c2nnnn2C2CCCC2)N2CCC(n3c(=O)[nH]c4ccccc43)CC2)cc1` (stereo unspecified), inactive: 17.6%.
`CCCOc1ccc(C(=O)NCC2(N(C)C)CCCCC2)cc1OC`: the activity change was inactive: -13.2%.
Then `Cc1ccc(C(=O)NCC2(N(C)C)CCCCC2)o1`, with inactive: 3.77%.
On to `O=C(NCC1(N2CCCCC2)CCCCC1)c1ccc(OC(F)F)cc1`, for which the activity change is inactive: -17.2%.
To `CC(C)(C)n1nnnc1C(c1ccccc1OC(F)(F)F)N1CCC(n2c(=O)[nH]c3ccccc32)CC1` (stereo unspecified) belongs “active”; to `O=c1[nH]c2ccccc2n1C1CCN(C(c2ccccc2OC(F)(F)F)c2nnnn2C2CCCC2)CC1` (stereo unspecified), “active”; to `N#CC1(Nc2ccccc2)CCN(CCc2ccccc2)CC1`, inactive: 0.223%.
To `CCN1CCC(Nc2ccc(Cl)cc2)CC1` belongs inactive: -7.62%; to `CSc1ccc(C(=O)NCC2(N3CCOCC3)CCCCC2)cc1`, inactive: -19.9%; to `O=C(NCC1(N2CCCCC2)CCCCC1)c1cccc([N+](=O)[O-])c1`, inactive: 0.204%.
Then `O=[N+]([O-])c1cc([N+](=O)[O-])c(NCC2CCS(=O)(=O)C2)c([N+](=O)[O-])c1` (stereo unspecified), with active: -136%; and `O=C(NCC1(N2CCCCC2)CCCCC1)c1cccc(C(F)(F)F)c1`, with inactive: -14.9%.
For `COc1cc(C(=O)NCC2(N3CCCCC3)CCCCC2)ccc1OC(F)F`, the activity change was inactive: 18.9%.
Then `O=C(NCC1(N2CCOCC2)CCCCC1)c1cc(=O)[nH]c2ccccc12`, with inactive: -15.7%.
To `CN1CCN(CCOC(=O)C(O)(c2ccccc2)c2ccccc2)CC1` belongs inactive: 4.17%; to `CC(C)c1ccc(C(=O)NCC2(N3CCOCC3)CCCCC2)cc1`, inactive: -5.04%; to `COc1ccc(NC2CCN(C(=O)OC(C)(C)C)CC2)cc1`, inactive: 6.73%.
Then `CCCCn1nnnc1C(c1cccc2ccccc12)N1CCC(n2c(=O)[nH]c3ccccc32)CC1` (stereo unspecified), with “active”.
